The target of this assay is Human full-length RanBP3 (residues 1–499; isoform B) (human). The experiment in a line: ITC; 530 µM RanQ69L:GTP titrated into 48 µM full-length RanBP3; 25°C; 300 mM NaCl, 5 mM MgCl2, 10 mM TRIS pH 7.4; single-site binding model; Kd,obs. In general terms: Isothermal titration calorimetry measures the heat released or taken up as one component is titrated into another.

By stoichiometry N is commonly meant the number of molecules, sites or subunits per partner or assembly.

Take “RanQ69L:GTP (from UniProt P62826 1-216) (enzyme)”: the stoichiometry N stood at 0.78.

The record behind these values is paper PMC3045386.
